Broadly, the IC50 is the concentration that gives 50% inhibition.

The chains behind the UniProt entries cited, without tags or fusion partners. Residues count along the entry.
UniProt P53350, 367-603: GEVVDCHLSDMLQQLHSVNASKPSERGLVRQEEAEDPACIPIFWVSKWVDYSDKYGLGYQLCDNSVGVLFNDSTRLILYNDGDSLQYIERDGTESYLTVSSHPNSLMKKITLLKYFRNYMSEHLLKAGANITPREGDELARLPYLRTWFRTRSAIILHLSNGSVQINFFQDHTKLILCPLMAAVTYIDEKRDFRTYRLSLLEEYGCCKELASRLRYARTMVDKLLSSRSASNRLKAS

SMILES strings stand for the structures. Where two headings read alike, the source gives them in different places.

The experiment deals with PLK1 PBD protein (residues 367-603) (Homo sapiens (Human), UniProt P53350). Description: Competitive fluorescence polarization (FP) binding assay, PLK1 PBD.

As for `CC(=O)N1CCC[C@H]1C(=O)N[C@@H](CC(C)C)C(=O)N[C@@H](Cc1c[nH]cn1)C(=O)N[C@@H](CO)C(=O)N[C@H](C(=O)N[C@@H](C)C(=O)O)[C@@H](C)OP(=O)(O)O` [compound 5743, Ac-PLHS[pT]A, reference compound], the half-inhibitory concentration (IC50) by setting is: (Table 2, FP assay, read-out: IC50) 2000 nM; (read-out: PLK1 PBD IC50, Table 1) 2000 nM.
